# Ab-95 light chain CDR variants: yeast mating affinities

Target peptide (SARS-CoV-2 spike, HR2 region): PDVDLGDISGINAS

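The starting antibody came from a phage panning campaign against this peptide. The library (AAYL52) carries one to three amino acid substitutions per variant, with no insertions or deletions. Affinity was read by AlphaSeq, a pooled yeast mating assay with surface-displayed partners. Pairs that bind mate more often; barcode pairs of the diploids are counted by sequencing. Scores were corrected for input abundance and mapped to Kd with protein pairs of known affinity run in the same pool. There are three technical replicates.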

Parent scFv Ab-95: VH joined to VL by the linker GGGGSGGGGSGGGGS. Changes lie in the light chain CDRs alone.
VH: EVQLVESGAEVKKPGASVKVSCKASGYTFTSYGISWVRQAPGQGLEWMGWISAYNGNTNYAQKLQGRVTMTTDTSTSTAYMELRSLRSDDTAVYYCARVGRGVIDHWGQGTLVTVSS
VL: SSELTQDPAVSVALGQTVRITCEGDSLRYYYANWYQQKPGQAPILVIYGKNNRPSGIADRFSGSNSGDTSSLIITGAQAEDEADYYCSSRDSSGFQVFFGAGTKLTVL

Variants are written as CDR1, CDR2 and CDR3 of the light chain (limits as in the source). Parent: EGDSLRYYYAN, GKNNRPS, SSRDSSGFQVF. Scale: log10 of Kd in nM, estimated from mating counts; low values are strong binders. "n.d." marks a missing value. The strain was present, yet no cells mated with the target were sequenced in that replicate, which points to weak or no binding. Empty control strains, which show no peptide, gave a signal in 28% of pairings with library AAYL52; the median was 3.91 and 95% of these signals were weaker than 2.90. No background was subtracted. The control count says in how many pairings with the empty strains this scFv gave a signal, with their mean in brackets.

| CDR-L1 | CDR-L2 | CDR-L3 | replicates, log10 nM | empty controls |
|---|---|---|---|---|
| EGDSLRYYYAV | GKNNRPS | FSRDSSGHQVF | n.d. / n.d. / n.d. | 3 of 9 (3.99) |
| EGDSLRYYYAN | GDNNRSS | SSRDSSGFQVW | 2.31 / 2.24 / 2.17 | 4 of 9 (4.00) |
| EGDSLGYYYAN | GKFNRPS | SSRDSSGFQNF | n.d. / n.d. / n.d. | 1 of 9 (2.86) |
| EGDSLRYRYAN | GKNNRPS | SSDDSWGFQVF | 2.30 / 2.66 / 1.77 | 5 of 9 (3.34) |
| EGDSLRYYYAN | GKANRPE | SSRGSSGFQVF | 2.85 / 2.58 / 2.45 | 6 of 9 (4.32) |
| EGDSLRYEYAN | GKNSNPS | SSRDSSGFQVF | 2.95 / 2.62 / 2.66 | 5 of 9 (4.06) |
| EGDSLRYYYAN | GKRLRPS | WSRDSSGFQVF | 4.34 / 3.62 / 3.35 | 1 of 9 (3.54) |
| EGDSARYYYAN | GKKNRPS | ESRDSSGFQVF | n.d. / n.d. / n.d. | 7 of 9 (3.75) |
| EGDSLRYYYAN | GKNNRPS | QSRDSKFFQVF | 2.99 / n.d. / n.d. | 1 of 9 (3.60) |
| EGDPLCYYYAV | GKNNRPS | SSRDSSGFQVF | 4.17 / n.d. / 4.40 | 3 of 9 (3.91) |
| NGDSLREYYAN | GKNNRPS | SSRDSSGFQVC | 4.26 / 2.30 / 2.39 | 0 of 9 |
| ELDSLRRYYAN | GKNNRPS | SDRDSSGFQVF | n.d. / 3.03 / 2.16 | 1 of 9 (3.25) |
| EQDSLRYTYAN | GKNNRPS | SSRDSSGFQDF | 3.59 / 3.51 / n.d. | 0 of 9 |
| EGDRLRYGYAN | GKNNRPS | SRRDSSGFQVF | 3.06 / 3.14 / 2.81 | 3 of 9 (4.38) |
| EGDSLRYYYAN | GKNIRPS | RSGDSSGFQVF | 4.11 / 3.85 / 3.58 | 0 of 9 |
| EGDSLRYYYAN | GKYNRPS | ISRDSSGFQCF | 2.99 / 2.67 / 3.00 | 4 of 9 (3.83) |
| EGDSLRYYYMN | GKNNRPS | SSPDSSGFTVF | 5.65 / 4.43 / n.d. | 4 of 9 (3.73) |
| WGDSLRYYYAN | GKNNRPS | SSWDSSGFQVF | n.d. / n.d. / n.d. | 1 of 9 (2.02) |
| EGDKLRYYYAN | GKNNRFS | SSSDSSGFQVF | n.d. / 5.30 / n.d. | 1 of 9 (3.48) |
| EGDSLRYYYAN | GKNNRGP | SSRDSSGFQSF | 2.66 / 2.17 / 1.87 | 1 of 9 (2.61) |
| EGDSCRYYYAN | GKWNRPS | SSRDSSGFQVF | 5.09 / 4.97 / n.d. | 1 of 9 (3.40) |
| EKDSLRYYYAN | GKNNGPS | SSRDSSGHQVF | n.d. / n.d. / n.d. | 5 of 9 (3.72) |
| EGDSLRYYYAN | GKNNRPY | SSRDESGFQWF | 2.34 / 3.21 / n.d. | 2 of 9 (4.49) |
| HGDSLRYYYAC | GKNNRPS | SSRDLSGFQVF | 3.32 / n.d. / n.d. | 2 of 9 (3.73) |
| EGDSWRYYYAN | GKNNRPS | SARDGSGFQVF | 3.28 / 2.79 / 3.74 | 2 of 9 (4.00) |
| EGDSLRYYGAN | GCNNRPS | SSRDSRGFQVF | 2.28 / 2.25 / 2.25 | 1 of 9 (5.10) |
| EFDSLRYYYAN | GKNNRPS | SSRDSFGNQVF | 3.31 / 5.44 / 2.54 | 1 of 9 (3.70) |
| EGDSLRRYCAN | GKNNRPS | SSRDSSGFQVF | 1.99 / 1.95 / 1.53 | 4 of 9 (3.83) |
| EGGSLRYYNAN | GKNNRNS | SSRDSSGFQVF | 1.48 / 1.49 / 1.68 | 0 of 9 |
| EGDSLRYYYQN | GKNNRQS | SSRDSSGFQVF | 3.86 / n.d. / n.d. | 0 of 9 |
| EGQSLRYYYAN | GKMNRPS | SSRDCSGFQVF | 4.70 / n.d. / n.d. | 2 of 9 (4.71) |
| SGDSTRYYYAN | GKNNRPS | SSRDSDGFQVF | 3.62 / 3.12 / 2.90 | 3 of 9 (3.37) |
| EGDSLRYYYAN | GKCNRPM | SSRDSSGFTVF | 3.97 / n.d. / n.d. | 1 of 9 (4.20) |
| EGDSLRYYYAH | GKNWRPS | SSKDSSGFQVF | 2.32 / 2.03 / 1.58 | 3 of 9 (3.80) |
| EGDKLRYYYAN | GKNNRPS | SSRDSPGFQVF | n.d. / 3.74 / n.d. | 3 of 9 (3.62) |
| EGDSLRYQYAN | GKNNRPS | SSRDDSRFQVF | 1.53 / 1.10 / 0.46 | 0 of 9 |
| EGDSDRYYYAN | GKNNRPS | SRRDSQGFQVF | 5.26 / n.d. / 4.75 | 3 of 9 (4.21) |
| EGDSLRYYYAN | GKNNRPT | SSRDSSKGQVF | 5.31 / n.d. / n.d. | 2 of 9 (3.35) |
| EGDSGRYYYAR | GKNNRPS | RSRDSSGFQVF | n.d. / n.d. / n.d. | 1 of 9 (2.75) |
| EGDSLRYYYAT | GKNNWPS | SSRDSSGFQVF | n.d. / n.d. / n.d. | 1 of 9 (3.16) |
| EGDSLTYYYAN | GKNNRPS | SSRYSSGFQVP | n.d. / 3.87 / n.d. | 2 of 9 (4.32) |

Excerpt, the first 3 entries:

| CDR-L1 | CDR-L2 | CDR-L3 | replicates, log10 nM | empty controls |
|---|---|---|---|---|
| EGDSLRYYYAV | GKNNRPS | FSRDSSGHQVF | n.d. / n.d. / n.d. | 3 of 9 (3.99) |
| EGDSLRYYYAN | GDNNRSS | SSRDSSGFQVW | 2.31 / 2.24 / 2.17 | 4 of 9 (4.00) |
| EGDSLGYYYAN | GKFNRPS | SSRDSSGFQNF | n.d. / n.d. / n.d. | 1 of 9 (2.86) |

Data: MIT Lincoln Laboratory AlphaSeq set, Engelhart et al. 2022, doi:10.1038/s41597-022-01779-4, as distributed in FLAb.